This assay concerns the target Prostaglandin G/H synthase 1 (Homo sapiens, UniProt P23219).

Protein sequences, listed by entry. Tags and fused reporters are not part of them.
UniProt P23219, whole entry: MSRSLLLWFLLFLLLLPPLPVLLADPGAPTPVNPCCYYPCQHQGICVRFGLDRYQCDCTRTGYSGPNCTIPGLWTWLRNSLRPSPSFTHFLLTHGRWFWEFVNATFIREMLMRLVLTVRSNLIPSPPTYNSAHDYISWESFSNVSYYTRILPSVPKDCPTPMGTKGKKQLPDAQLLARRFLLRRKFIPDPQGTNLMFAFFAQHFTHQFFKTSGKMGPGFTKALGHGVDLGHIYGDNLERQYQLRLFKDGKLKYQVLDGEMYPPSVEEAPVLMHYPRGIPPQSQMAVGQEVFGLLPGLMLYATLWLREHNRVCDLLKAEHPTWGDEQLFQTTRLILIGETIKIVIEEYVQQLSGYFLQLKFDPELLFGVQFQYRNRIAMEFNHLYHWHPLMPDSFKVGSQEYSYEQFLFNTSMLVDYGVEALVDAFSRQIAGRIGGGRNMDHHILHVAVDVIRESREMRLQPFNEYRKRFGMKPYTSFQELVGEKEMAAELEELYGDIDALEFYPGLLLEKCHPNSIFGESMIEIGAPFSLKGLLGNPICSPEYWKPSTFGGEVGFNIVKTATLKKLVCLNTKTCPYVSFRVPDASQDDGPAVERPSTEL

A word on the Ki: it is the dissociation constant of the complex between target and ligand, obtained from inhibition or displacement. For the compound `Cc1onc(-c2ccccc2)c1-c1ccc(S(N)(=O)=O)cc1`, the Ki came to 0.7 µM.
